{"source": "patent US20200308582A1", "about": "“KCNK3-BASED GENE THERAPY OF CARDIAC ARRHYTHMIA” (UNIVERSITÄT HEIDELBERG, priority 2017, published 2020)", "tested_on": "TASK-1 protein", "assay": "TASK-1 protein immunoblot in neonatal rat cardiomyocytes infected with AAV6 carrying siRNA", "details": "siRNA sequences 1-3 compared, GAPDH loading control", "data": [{"substance": "siRNA3: siRNA sequence 3 directed against the porcine orthologue of TASK-1, delivered by AAV6 in a pri-miR155 scaffold (guide ACGTGGCCTTTAGCTTCGTCT)", "values": [{"measurement": "downregulation of TASK-1 protein levels (in vitro efficacy)", "result": "Highest in vitro efficacy"}, {"measurement": "downregulation of TASK-1 protein levels (in vitro efficacy)", "setting": "listed as siRNA sequence number 3", "result": "best results"}]}]}
